The values that follow come from patent US10251958B2, “Nanoparticles for drug delivery comprising albumin having a polymer chain coupled thereto” (NEWSOUTH INNOVATIONS PTY LIMITED, priority 2013, dated 2019).

Series [1] in a line: DLS hydrodynamic diameter of BSA conjugated copolymer (Example 2). It counts as physicochemical. The protocol: ^1H-NMR spectra were acquired to characterised compounds using CDCl3 or d-DMSO with a 300 MHz spectrometer. Thermogravimetric analysis (TGA) was carried out using TG5000 to quantify the amount of platinum conjugated to the copolymers. The sample (≤5 mg) was placed on a thermo-balance and heated from room temperature to 600° C. at 20° C./min, and held for an isothermal period of 60 minutes under nitrogen atmosphere. Diameter size of copolymers in 0.1M PBS buffer pH 7.0 was measured using a Malvern dynamic light scattering instrument (DLS) in a disposable plastic cuvette (1 cm path length). Fluorescence measurements were performed on Agilent Cary Eclipse Fluorescence Spectrometer using a 1 cm quartz cuvette. Fluorescence spectra were recorded between 400-800 nm at λex=495 nm, λem=520 nm with entrance and exit slit width of […]. SDS-PAGE was performed using standard techniques using a premixed electrophoresis buffer which contains 25 mM Tris, 192 mM glycine and 0.1% SDS (Tris/Glycine/SDS buffer) to determine the conjugation efficiency between the BSA-FITC and the copolymer. Samples were prepared for electrophoresis without the use of a reducing agent. The samples were mixed with bromophenol blue (0.01% w/v) solution as the marker. […] Gel images were recorded using a Bio-Rad GS-800 calibrated densitometer. […]

Series [2] can be described thus: Hydrodynamic diameter and zeta potential of materials and complexes (Example 3). The series is classed as physicochemical. The protocol:
Solutions of albumin-PDMAEMA conjugates with required albumin to PDMAEMA ratios were prepared. The resulting conjugates were dialysed in 0.05 M PBS (pH5) for 12 h by changing solvent every 2 h. […] All the conditions were kept consistent to the corresponding oligonucleotide samples. In addition, the oligonucleotide transfection efficiency of the PEGMEMA-PDMAEAM cationic block copolymer was investigated. The same protocol was adopted to make the polyion complex micelles from this polymer solution.
The condensation of the oligonucleotide was therefore carried out when the conjugate solution was at pH5 and the oligonucleotide was dissolved in MilliQ water. The albumin-polymer conjugates with a pH of 5 was then slowly added to the solutions of ISIS 5132 with the concentration of 200 μg/ml (ζ=−29.87 mV at pH7). […] If using the conjugates with higher ratios of BSA to polymer, the particle size of the polyion complex micelle was seen to increase dramatically due to the natural aggregation of albumin. After the complex micelle was stable, the system was brought back to pH7. There are several reasons for this: to reduce the aggregation of the micelle, to protect the oligonucleotide and to keep the neutral environment for cells in the afterward cytotoxicity assays.

[3] abbreviates: pH 7, ISIS 5132 200 ug/ml, BSA 1 mg/ml, PDMAEMA 0.21 mg/ml.

As to bovine serum albumin [BSA], in series [1] (0.1M PBS pH 7, 25° C.), the “Dh number (d/nm)” value came to 9.93 nm. The PDi in series [1] (0.1M PBS pH 7, DLS) came out at 0.42. In series [2] (pH 5, conc. of BSA 1 mg/ml), this substance displayed a Dh of 6.28 nm and a Zeta potential of −2.53 mV. In series [2] (setting [3]), this substance came in with a Dh of 5.4 nm and a Zeta potential of −5.64 mV.
